Yeast mating assay B: variants of the scFv Ab-14

The measurements come from Li et al. 2023 (doi:10.1038/s41467-023-39022-2) through the FLAb antibody collection.

Binding partner: SARS-CoV-2 spike HR2 peptide, sequence PDVDLGDISGINAS.

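The starting antibody came from a phage panning campaign against this peptide. This is the validation round: designs drawn from the data on random variants, tested in the same kind of assay. Several design methods are mixed in this list. The assay is AlphaSeq: two haploid yeast populations carry antibody and antigen on their surface. Mating (16 h, 30 °C) was followed by selection of diploids and sequencing of their barcodes. A regression on co-assayed BCL2-family reference pairs converts the normalised counts of each replicate to an apparent Kd. Each pool was mated in six replicate cultures.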

Ab-14 is the parent antibody, in scFv form: VH, then a 15-residue (Gly4Ser)3 linker, then VL. The heavy chain is unchanged in all variants.
VH: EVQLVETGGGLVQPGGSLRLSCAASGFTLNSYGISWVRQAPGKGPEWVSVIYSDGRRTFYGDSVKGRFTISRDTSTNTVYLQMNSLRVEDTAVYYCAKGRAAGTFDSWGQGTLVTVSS
VL: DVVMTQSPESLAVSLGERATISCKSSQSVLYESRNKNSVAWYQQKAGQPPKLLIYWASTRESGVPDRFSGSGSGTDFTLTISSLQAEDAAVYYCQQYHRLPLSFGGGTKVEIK

The parent's light chain CDRs are KSSQSVLYESRNKNSVA, WASTRES, QQYHRLPLS; each variant's own CDRs replace them letter for letter.
Variants here have more than six changes.
Kd is apparent (estimated from mating counts) and averaged on the log scale over replicates with a signal. Smaller is tighter.
"no signal" marks a missing value. The strain was present, yet no cells mated with the target were sequenced in any replicate, which points to weak or no binding.
In the paper, a design with two or fewer of six values counts as a poor binder.

Variant KLQFSEEYESRNKNSVA / SAHQRES / QQYHRLPLS gave 500 pM (6 of 6 replicates). For TISQSFLMENQFKNSVA / QATTRES / QCYDRLPLS, the assay gave 5.4 nM (6 of 6 replicates). With KARQSSLYESRNQNSVA / NASQRLE / QQYHRLPLS the result was 710 pM (6 of 6 replicates). For MISQLYNMGQFAINSVA / QASERCN / QQYDRLPLM, the assay gave 28 nM (6 of 6 replicates). For AVSIEHTEGTRYWNAIA / DLSQRNN / QQYDQLPLS, the assay gave 100 nM (2 of 6 replicates).

Variant SMSNAQINPDVWKNSIA / DAEHVEY / QQYSRLPLT showed 2.2 nM (6 of 6 replicates). With MVTQMAMTGMMSKRSVA / NAETREY / QQYHRLPLI the result was 51 nM (6 of 6 replicates). With SITQLVNYGSRNKNSVA / QMSTRES / QQYDRLPLS the result was 1.7 nM (6 of 6 replicates). For MFLKEDFQQLAAKNAIA / NAREAVT / QHYFRLPLV, the assay gave 830 nM (1 of 6 replicates). For MLSQMWAIGMKVSNSVA / QASTRFE / QQYERLPLI, the assay gave 40 nM (6 of 6 replicates).

For KLMMFMQGIGCMKNNIA / NLSEVAT / QQYAQLPLV, the assay gave 1.2 µM (2 of 6 replicates). Variant KISQMQRVGSTHGNSIA / EEQTRAK / QQYHRLPLS gave 14 nM (6 of 6 replicates). With KLTKAQYNATSHYQNVA / ESNKIME / QSYYRLPLS the result was 51 nM (5 of 6 replicates). Variant KISFNTLIESKNLNSVA / EMTNREY / QDYDRLPLS gave 16 nM (6 of 6 replicates). For KLGEQGGHSMDHANNIA / EVDMLDQ / QQYMRLPLI, the assay gave 1.9 nM (6 of 6 replicates).

Variant FLTYAQDQTGLQGNAIA / QVNLKEN / QQYYRLPLA gave no signal (0 of 6 replicates). With KLLQSVNYGSRAMNSVA / QMETRED / QQYHRLPLS the result was no signal (0 of 6 replicates). Variant KLSMSMRFLTEQKNSIA / ELVTRMS / QQYHRLPLS gave 43 nM (6 of 6 replicates). For KLGAAMRFESSNKASIA / NNSTREE / QQYHRLPLS, the assay gave 28 nM (6 of 6 replicates). Variant TISQSAGQESHNKNSVA / DLSVRGS / QQYHRLPLS showed 2.8 nM (6 of 6 replicates).

Variant MMSQVTGQGQRHRNNVA / QTSMREP / QQYDRLPLI showed 7.8 nM (6 of 6 replicates). For MLSEFMHMLGAKKNSIA / DLVVRAN / QQYHRLPLA, the assay gave 14 nM (6 of 6 replicates). Variant KLSMSQEYESINKNSVA / NASTRLT / QQYHRLPLS showed 2.1 nM (6 of 6 replicates). For MIAQGLRGVGRNKNSVA / NAQTREE / QHYHRLPLS, the assay gave 6.3 nM (6 of 6 replicates). Variant TLLMGPTEARKDKHNIA / DMSEREE / QQYHLLPLI showed 4.5 nM (6 of 6 replicates).

Variant KFQQSQLYESRNMNSVA / NASQRMQ / QQYHRLPLK gave 3.2 nM (6 of 6 replicates). With IVSQLMLWGLHAKNSIA / EAVTRTN / QQYDRLPLF the result was 48 nM (3 of 6 replicates). Variant KSSISVEYQDRLSNSVA / DASQRES / QQYHRLPLS gave 1.1 nM (6 of 6 replicates). Variant MMSQVTGQGQRHRNNVA / QTSTREP / QQYDRLPLV showed 51 nM (6 of 6 replicates). For NISESMYFQSRNGNNIA / EMSTRER / QHYHRLPLS, the assay gave 31 nM (6 of 6 replicates).

For SLMQVGGYESNNKNSIA / DLRTREH / QQYHRLPLS, the assay gave 6.2 nM (6 of 6 replicates). Variant TISMSMNWLTFNKDNIA / EESKRED / QQYDRLPLS gave 17 nM (6 of 6 replicates). Variant QIQGKLQHGGNQGANVA / QGVETKN / QQYYTLPLT gave no signal (0 of 6 replicates). Variant HVKEDLNMGLKFQSSVA / SGAHREH / QQYYRLPLG gave 3.4 nM (6 of 6 replicates). With ALSMLTEMEHVNRNSVA / ELVTRVN / QQYNRLPLS the result was 8.7 nM (6 of 6 replicates).

For IISQVDAYESRNKNSIA / DQSTRGQ / QQYDRLPLS, the assay gave 27 nM (6 of 6 replicates). Variant RLLDWAYNLTAKDSNIA / DSDIRGS / QQYSHLPLA gave 5.6 nM (6 of 6 replicates). Variant TISQSMLMTGLNRNSVA / QAEERLE / QQYHRLPLS gave 2.0 nM (6 of 6 replicates). Variant KLSQSHLYESRMVNNVA / EASYRMD / QQYHRLPLS showed 2.1 nM (6 of 6 replicates). For MVSQLMLWGLHAKNSIA / EAHTRLN / QQYDRLPLI, the assay gave 89 nM (6 of 6 replicates).

For KISQSVNYLSRVMNSVA / DNSTRES / QQYFRLPLS, the assay gave 750 pM (6 of 6 replicates). For QLGAMFDMTSKNKNSVA / EQSTREN / QQYHRLPLS, the assay gave 1.6 nM (6 of 6 replicates). Variant KILQSQEYESRNKNSVA / HASTRED / QQYHCLPLS gave 29 nM (6 of 6 replicates). Variant HISQMWMLESKHKNNVA / EESTRED / QSYFRLPLS showed 7.7 nM (6 of 6 replicates). With KLSYGNLYESRNKNSVA / NASTRCQ / QQYHRLPLS the result was 1.6 nM (6 of 6 replicates).

Variant SIYDITGMESRNKNPIA / DVSTRPS / QQYDRLPLS gave 1.7 nM (6 of 6 replicates). Variant KVQMSWLMSSRMKNQVA / HASMRES / QQYHRLPLS showed 60 nM (6 of 6 replicates).

Picked from the list: the 8 lowest averages where every replicate gave a value.

CDR-L1,CDR-L2,CDR-L3,Kd (apparent),replicates with signal
KLQFSEEYESRNKNSVA,SAHQRES,QQYHRLPLS,500 pM,6 of 6
KARQSSLYESRNQNSVA,NASQRLE,QQYHRLPLS,710 pM,6 of 6
KISQSVNYLSRVMNSVA,DNSTRES,QQYFRLPLS,750 pM,6 of 6
KSSISVEYQDRLSNSVA,DASQRES,QQYHRLPLS,1.1 nM,6 of 6
QLGAMFDMTSKNKNSVA,EQSTREN,QQYHRLPLS,1.6 nM,6 of 6
KLSYGNLYESRNKNSVA,NASTRCQ,QQYHRLPLS,1.6 nM,6 of 6
SIYDITGMESRNKNPIA,DVSTRPS,QQYDRLPLS,1.7 nM,6 of 6
SITQLVNYGSRNKNSVA,QMSTRES,QQYDRLPLS,1.7 nM,6 of 6

Values of this round are not directly comparable with the first-round values of the same sequences.
The parent sequence was in this pool as ten entries: three were never detected, three once, and four in most replicates, with averages from 2.2 nM to 240 nM.
As a blank, each scFv also met three strains without target: over all light chain designs, 4% of these pairings were detected, typically at 430 nM and seldom below 38 nM.